# Assay results from US6541463B1, “Inhibitors of type 5 and type 3 17β-hydroxysteroid dehydrogenase and methods for their use” (Endorecherche, Inc., priority 1998, dated 2003).
# Chains of the proteins cited; added tags and fusions are not shown.
# UniProt P37059, whole entry: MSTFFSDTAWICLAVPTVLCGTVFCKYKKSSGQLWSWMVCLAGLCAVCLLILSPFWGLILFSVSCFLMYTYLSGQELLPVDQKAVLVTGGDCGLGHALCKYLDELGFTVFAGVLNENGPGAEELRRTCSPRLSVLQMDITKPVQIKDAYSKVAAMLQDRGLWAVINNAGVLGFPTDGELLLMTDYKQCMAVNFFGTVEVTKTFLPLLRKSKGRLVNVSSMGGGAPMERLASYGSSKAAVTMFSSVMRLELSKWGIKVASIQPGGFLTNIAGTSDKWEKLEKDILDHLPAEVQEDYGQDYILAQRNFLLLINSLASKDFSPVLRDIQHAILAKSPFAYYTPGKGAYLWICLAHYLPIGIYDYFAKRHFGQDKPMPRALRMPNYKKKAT
# UniProt P42330, whole entry: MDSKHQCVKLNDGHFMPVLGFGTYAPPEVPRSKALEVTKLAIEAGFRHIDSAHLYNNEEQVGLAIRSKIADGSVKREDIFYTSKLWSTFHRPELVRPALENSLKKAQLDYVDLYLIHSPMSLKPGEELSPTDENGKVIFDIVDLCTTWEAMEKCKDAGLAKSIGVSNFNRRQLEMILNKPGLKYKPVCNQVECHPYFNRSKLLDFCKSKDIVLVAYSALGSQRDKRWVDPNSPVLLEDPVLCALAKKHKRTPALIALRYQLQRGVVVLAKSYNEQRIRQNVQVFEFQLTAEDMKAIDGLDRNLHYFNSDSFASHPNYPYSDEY
# Tests used:
# [1] = molecular target: human type 2 17β-hydroxysteroid dehydrogenase (Homo sapiens, UniProt P37059); test: Enzymatic assay for type 2 17β-HSD; conditions: for Inhibition Type 2 17β-HSD Activity [% Inh.]: at 3.10^-8M; for Inhibition Type 2 17β-HSD Activity [% Inh. at 3.10^−5 M]: Table 5 column 5
# [2] = system: Shionogi mouse mammary carcinoma cells; test: Antiandrogenic activity: inhibition of DHT-induced proliferation of Shionogi cells; format: cell-based
# [3] = system: Shionogi mouse mammary carcinoma cells; test: Androgenic activity: stimulation of proliferation of Shionogi cells
# [4] = molecular target: human type 5 17β-hydroxysteroid dehydrogenase (Homo sapiens, UniProt P42330); test: Inhibition of human type 5 17β-HSD activity in transfected 293 cells; format: cell-based
# [5] = system: ZR-75-1 cells; test: Antiestrogenic activity: inhibition of E2-induced proliferation of ZR-75-1 cells; set-up: ZR-75-1 Activity, E2 / ZR-75-1 Activity E2 E^−6: unit not given here
# [6] = system: ZR-75-1 cells; test: Estrogenic activity: stimulation of proliferation of ZR-75-1 cells; format: cell-based, human
# [7] = read-out: Antiandrogenic Activity Shionogi, DHT [IC50], DHT
# [8] = read-out: Inhibition Type V 17β-HSD IC50
# [9] = read-out: Antiandrogenic Activity Shionogi DHT [IC50 (nM)], with DHT, value in square brackets on second line
# [10] = read-out: Inhibition Type V 17B-HSD IC50
# [11] = read-out: Inhibition Type V 17β-HSD IC50, Table 5 column 2
smiles,measurement,setting,value
CC(=O)[C@@]1(OC(=O)CCCCCF)CCC2C3C=C(C)C4=CC(=O)CC[C@]4(C)C3CC[C@@]21C (some centres unmarked),Inhibition Type 2 17β-HSD Activity [% Inh.],[1],[50] %
same,"Antiandrogenic Activity Shionogi, DHT","[2]; DHT, E^−6",−109
same,"Antiandrogenic Activity Shionogi, DHT","[2]; DHT, E^−7",−94
same,IC50,[2]; [7],18.5 nM
same,"Androgenic Activity Shionogi, Basal",[3]; E^−6,−16
same,"Androgenic Activity Shionogi, Basal",[3]; E^−7,−14
same,IC50,[4]; [8],4.4 nM
C[C@]12CCC3c4ccccc4CCC3C1CC[C@@]21CCCC(=O)O1 (some centres unmarked),Inhibition Type 2 17β-HSD Activity [% Inh. at 3 · 10^−8M],"[1]; Table 4′, bracketed values, 3 · 10^−8M",[88] %
same,Antiandrogenic Activity Shionogi DHT E^−6,"[2]; Table 4′, DHT-induced proliferation, E^−6 (10^−6 M)",−46%
same,Antiandrogenic Activity Shionogi DHT E^−7,"[2]; Table 4′, DHT-induced proliferation, E^−7",+2%
same,IC50,"[2]; read-out: Antiandrogenic Activity Shionogi, DHT [IC50 (nM)], Table 4′, bracketed values",2100 nM
same,Androgenic Activity Shionogi Basal E^−7,"[3]; Table 4′, E^−7",+17%
same,IC50,"[4]; read-out: Inhibition Type V 17β-HSD IC50, Table 4′",10.3 nM
CC(=O)[C@@]1(OC(=O)Cc2ccc(OC(=O)C(C)(C)C)cc2)CCC2C3C=C(C)C4=CC(=O)CC[C@]4(C)C3CC[C@@]21C (some centres unmarked),Inhibition Type 2 17β-HSD Activity [% Inh.],[1],[64] %
same,"Antiandrogenic Activity Shionogi, DHT","[2]; DHT, E^−6",−34
same,"Antiandrogenic Activity Shionogi, DHT","[2]; DHT, E^−7",3
same,"Androgenic Activity Shionogi, Basal",[3]; E^−6,−6
same,"Androgenic Activity Shionogi, Basal",[3]; E^−7,−9
same,IC50,[4]; [8],17 nM
CC(=O)[C@@]1(OC(=O)C2CCCC2)CC[C@H]2[C@@H]3C=C(C)C4=CC(=O)CC[C@]4(C)[C@H]3CC[C@@]21C,"ZR-75-1 Activity, E2",[5]; E2,−46
same,"ZR-75-1 Activity, E2","[5]; E2, E^−8",−39
same,"ZR-75-1 Activity, Basal",[6]; E^−6,0
same,"ZR-75-1 Activity, Basal",[6]; E^−8,−17
same,"Antiandrogenic Activity Shionogi, DHT","[2]; DHT, E^−6",−110
same,"Antiandrogenic Activity Shionogi, DHT","[2]; DHT, E^−7",−79
same,IC50,[2]; [7],44 nM
same,"Androgenic Activity Shionogi, Basal",[3]; E^−6,−25
same,"Androgenic Activity Shionogi, Basal",[3]; E^−7,−23
CCC(=O)O[C@]1(C(=O)N(C)C(C)C)CCC2C3C=C(C)C4=CC(=O)CC[C@]4(C)C3CC[C@@]21C (some centres unmarked),Inhibition Type 2 17β-HSD Activity [% Inh.],[1],[84] %
same,"Antiandrogenic Activity Shionogi, DHT","[2]; DHT, E^−6",−99
same,"Antiandrogenic Activity Shionogi, DHT","[2]; DHT, E^−7",−25
same,"Androgenic Activity Shionogi, Basal",[3]; E^−6,0
same,"Androgenic Activity Shionogi, Basal",[3]; E^−7,0
same,IC50,[4]; [8],7 nM
CCCN(C)C(=O)[C@@]1(OC(=O)CC)CCC2C3C=C(C)C4=CC(=O)CC[C@]4(C)C3CC[C@@]21C (some centres unmarked),Inhibition Type 2 17β-HSD Activity [% Inh.],[1],[87] %
same,"Antiandrogenic Activity Shionogi, DHT","[2]; DHT, E^−6",116
same,"Antiandrogenic Activity Shionogi, DHT","[2]; DHT, E^−7",−47
same,"Androgenic Activity Shionogi, Basal",[3]; E^−6,−56
same,"Androgenic Activity Shionogi, Basal",[3]; E^−7,−28
same,IC50,[4]; [8],6 nM
CCCC(=O)O[C@]1(C(=O)N(C)Cc2ccccc2)CCC2C3C=C(C)C4=CC(=O)CC[C@]4(C)C3CC[C@@]21C (some centres unmarked),Inhibition Type 2 17β-HSD Activity [% Inh.],[1],[88] %
same,"Antiandrogenic Activity Shionogi, DHT","[2]; DHT, E^−6",−121
same,"Antiandrogenic Activity Shionogi, DHT","[2]; DHT, E^−7",−66
same,"Androgenic Activity Shionogi, Basal",[3]; E^−6,−62
same,"Androgenic Activity Shionogi, Basal",[3]; E^−7,−32
same,IC50,[4]; [8],6.8 nM
CC(C)C[C@]1(C)CC2C3C=CC4=CC(=O)CC[C@]4(C)C3CC[C@]2(C)C1=O (some centres unmarked),IC50,[2]; [9],471 nM
same,Antiandrogenic Activity Shionogi DHT E^−6,"[2]; with DHT, E^−6",−85
same,Antiandrogenic Activity Shionogi DHT E^−7,"[2]; with DHT, E^−7",−36
same,Androgenic Activity Shionogi Basal E^−6,[3]; E^−6,−13
same,Androgenic Activity Shionogi Basal E^−7,[3]; E^−7,0
same,IC50,[4]; [10],20 nM
CC1=CC2C(CC[C@@]3(C)C2CCC(=O)[C@@]3(C)OC(=O)Cc2ccc(OC(=O)C(C)(C)C)cc2)[C@@]2(C)CCC(=O)C=C12 (some centres unmarked),Antiandrogenic Activity Shionogi DHT E^−6,"[2]; with DHT, E^−6",−19
same,Antiandrogenic Activity Shionogi DHT E^−7,"[2]; with DHT, E^−7",9
same,Androgenic Activity Shionogi Basal E^−6,[3]; E^−6,−11
same,Androgenic Activity Shionogi Basal E^−7,[3]; E^−7,13
same,IC50,[4]; [10],29.7 nM
CC1(C)CC[C@@]2(CCC3C4CCC5NC(=O)CC[C@]5(C)C4CC[C@@]32C)OC1=O (some centres unmarked),Inhibition Type 2 17β-HSD Activity [% Inh. at 3.10^−5 M],[1]; bracketed values,[43] %
same,IC50,[4]; [11],29 nM
CC(=O)O[C@]1(C(C)=O)CCC2C3C=C(C)C4=CC(=O)C[C@H](C)[C@]4(C)C3CC[C@@]21C (some centres unmarked),"ZR-75-1 Activity, E2",[5]; E2,−13
same,"ZR-75-1 Activity, E2","[5]; E2, E^−8",−17
same,"ZR-75-1 Activity, Basal",[6]; E^−6,0
same,"ZR-75-1 Activity, Basal",[6]; E^−8,0
same,"Antiandrogenic Activity Shionogi, DHT","[2]; DHT, E^−6",−104
same,"Antiandrogenic Activity Shionogi, DHT","[2]; DHT, E^−7",−88
same,IC50,[2]; [7],41 nM
same,"Androgenic Activity Shionogi, Basal",[3]; E^−6,−4
same,"Androgenic Activity Shionogi, Basal",[3]; E^−7,−19
same,IC50,[4]; [8],17.4 nM
CC1(C)CC[C@@]2(CCC3C4CCC5NC(=O)C=C[C@]5(C)C4CC[C@@]32C)OC1=O (some centres unmarked),Inhibition Type 2 17β-HSD Activity [% Inh. at 3.10^−5 M],[1]; bracketed values,[81] %
same,IC50,[4]; [11],26 nM
CC1=CC2C(CC[C@@]3(C)C2CCC(=O)[C@@]3(C)OC(=O)C2CCCC2)[C@]2(C)C1=CC(=O)C[C@@H]2C (some centres unmarked),IC50,[2]; [9],184 nM
same,Antiandrogenic Activity Shionogi DHT E^−6,"[2]; with DHT, E^−6",−107
same,Antiandrogenic Activity Shionogi DHT E^−7,"[2]; with DHT, E^−7",−23
same,Androgenic Activity Shionogi Basal E^−6,[3]; E^−6,−22
same,Androgenic Activity Shionogi Basal E^−7,[3]; E^−7,0
same,IC50,[4]; [10],24.2 nM
CC1=CC2C(CC[C@@]3(C)C2CCC(=O)[C@@]3(C)OC(=O)C(C)C)[C@]2(C)C1=CC(=O)C[C@@H]2C (some centres unmarked),IC50,[2]; [9],300 nM
same,Antiandrogenic Activity Shionogi DHT E^−6,"[2]; with DHT, E^−6",−95
same,Antiandrogenic Activity Shionogi DHT E^−7,"[2]; with DHT, E^−7",−19
same,Androgenic Activity Shionogi Basal E^−6,[3]; E^−6,−17
same,Androgenic Activity Shionogi Basal E^−7,[3]; E^−7,−13
same,IC50,[4]; [10],38.6 nM
CC(=O)[C@@]1(OC(=O)CCCCCBr)CCC2C3C=C(C)C4=CC(=O)CC[C@]4(C)C3CC[C@@]21C (some centres unmarked),"ZR-75-1 Activity, E2",[5]; E2,−53
same,"ZR-75-1 Activity, E2","[5]; E2, E^−8",−35
same,"ZR-75-1 Activity, Basal",[6]; E^−6,−8
same,"ZR-75-1 Activity, Basal",[6]; E^−8,0
same,"Antiandrogenic Activity Shionogi, DHT","[2]; DHT, E^−6",−126
same,"Antiandrogenic Activity Shionogi, DHT","[2]; DHT, E^−7",−78
same,IC50,[2]; [7],158 nM
same,"Androgenic Activity Shionogi, Basal",[3]; E^−6,−32
same,"Androgenic Activity Shionogi, Basal",[3]; E^−7,−11
same,IC50,[4]; [8],1.8 nM
CCCCCC(=O)O[C@]1(C(C)=O)CCC2C3C=C(C)C4=CC(=O)C[C@H](C)[C@]4(C)C3CC[C@@]21C (some centres unmarked),"ZR-75-1 Activity, E2",[5]; E2,−19
same,"ZR-75-1 Activity, E2","[5]; E2, E^−8",−12
same,"ZR-75-1 Activity, Basal",[6]; E^−6,−9
same,"ZR-75-1 Activity, Basal",[6]; E^−8,−29
same,"Antiandrogenic Activity Shionogi, DHT","[2]; DHT, E^−6",−121
same,"Antiandrogenic Activity Shionogi, DHT","[2]; DHT, E^−7",−51
same,"Androgenic Activity Shionogi, Basal",[3]; E^−6,−21
same,"Androgenic Activity Shionogi, Basal",[3]; E^−7,−4
same,IC50,[4]; [8],21.3 nM
CC(=O)[C@@]1(OC(=O)CCCCl)CCC2C3C=C(C)C4=CC(=O)CC[C@]4(C)C3CC[C@@]21C (some centres unmarked),"Antiandrogenic Activity Shionogi, DHT","[2]; DHT, E^−6",−93
same,"Antiandrogenic Activity Shionogi, DHT","[2]; DHT, E^−7",−91
same,IC50,[2]; [7],10 nM
same,"Androgenic Activity Shionogi, Basal",[3]; E^−6,23
same,"Androgenic Activity Shionogi, Basal",[3]; E^−7,5
same,IC50,[4]; [8],4.1 nM
CC(=O)O[C@]1(C)C(=O)CCC2C3C=C(C)C4=CC(=O)C[C@H](C)[C@]4(C)C3CC[C@@]21C (some centres unmarked),IC50,[2]; [9],151 nM
same,Antiandrogenic Activity Shionogi DHT E^−6,"[2]; with DHT, E^−6",−106
same,Antiandrogenic Activity Shionogi DHT E^−7,"[2]; with DHT, E^−7",−41
same,Androgenic Activity Shionogi Basal E^−6,[3]; E^−6,−32
same,Androgenic Activity Shionogi Basal E^−7,[3]; E^−7,−12
same,IC50,[4]; [10],28.5 nM
C[C@]12CCC(=O)NC1CCC1C2CC[C@@]2(C)C1CC[C@@]21CCCCC(=O)O1 (some centres unmarked),IC50,[4]; [11],20 nM
CCC[C@]1(C)CC2C3C=CC4=CC(=O)CC[C@]4(C)C3CC[C@]2(C)C1=O (some centres unmarked),ZR-75-1 Activity E2 3E^−8,"[5]; with E2, 3E^−8",−12
same,ZR-75-1 Activity Basal E^−6,[6]; E^−6,10
same,ZR-75-1 Activity Basal E^−8,[6]; E^−8,0
same,Antiandrogenic Activity Shionogi DHT E^−6,"[2]; with DHT, E^−6",−85
same,Antiandrogenic Activity Shionogi DHT E^−7,"[2]; with DHT, E^−7",−14
same,Androgenic Activity Shionogi Basal E^−6,[3]; E^−6,−22
same,Androgenic Activity Shionogi Basal E^−7,[3]; E^−7,0
same,IC50,[4]; [10],35 nM
CC(=O)O[C@]1(C(=O)N(C)c2ccccc2)CCC2C3C=C(C)C4=CC(=O)CC[C@]4(C)C3CC[C@@]21C (some centres unmarked),"Antiandrogenic Activity Shionogi, DHT","[2]; DHT, E^−6",−82
same,"Antiandrogenic Activity Shionogi, DHT","[2]; DHT, E^−7",−16
same,"Androgenic Activity Shionogi, Basal",[3]; E^−6,0
same,"Androgenic Activity Shionogi, Basal",[3]; E^−7,0
same,IC50,[4]; [8],25 nM
CC(=O)CCCC(=O)O[C@]1(C(C)=O)CCC2C3C=C(C)C4=CC(=O)CC[C@]4(C)C3CC[C@@]21C (some centres unmarked),"ZR-75-1 Activity, E2",[5]; E2,−47
same,"ZR-75-1 Activity, E2","[5]; E2, E^−8",−60
same,"ZR-75-1 Activity, Basal",[6]; E^−6,0
same,"ZR-75-1 Activity, Basal",[6]; E^−8,−23
same,"Antiandrogenic Activity Shionogi, DHT","[2]; DHT, E^−6",−109
same,"Antiandrogenic Activity Shionogi, DHT","[2]; DHT, E^−7",−22
same,"Androgenic Activity Shionogi, Basal",[3]; E^−6,−11
same,"Androgenic Activity Shionogi, Basal",[3]; E^−7,5
same,IC50,[4]; [8],11 nM

# Like-named read-outs stand apart in the source and are kept apart here.
